Laboratory results: PubChem BioAssay (NCATS)
The entries are a selection whose mix differs from that of the whole data set. Records with an inconclusive call do not appear. Active and inactive are the calls of the source. Unless noted, calls come from the whole dose curve; as a rule, active = well fitted curve in the direction sought with a large enough effect; inconclusive = small, poorly fitted or top-dose-only effect, or another doubt; inactive = no such curve, though single readings can be large; an effect the other way counts as inactive or inconclusive.

Sequences of proteins named here, by UniProt entry; tags and fusion partners are left off.
UniProt P08684, whole entry: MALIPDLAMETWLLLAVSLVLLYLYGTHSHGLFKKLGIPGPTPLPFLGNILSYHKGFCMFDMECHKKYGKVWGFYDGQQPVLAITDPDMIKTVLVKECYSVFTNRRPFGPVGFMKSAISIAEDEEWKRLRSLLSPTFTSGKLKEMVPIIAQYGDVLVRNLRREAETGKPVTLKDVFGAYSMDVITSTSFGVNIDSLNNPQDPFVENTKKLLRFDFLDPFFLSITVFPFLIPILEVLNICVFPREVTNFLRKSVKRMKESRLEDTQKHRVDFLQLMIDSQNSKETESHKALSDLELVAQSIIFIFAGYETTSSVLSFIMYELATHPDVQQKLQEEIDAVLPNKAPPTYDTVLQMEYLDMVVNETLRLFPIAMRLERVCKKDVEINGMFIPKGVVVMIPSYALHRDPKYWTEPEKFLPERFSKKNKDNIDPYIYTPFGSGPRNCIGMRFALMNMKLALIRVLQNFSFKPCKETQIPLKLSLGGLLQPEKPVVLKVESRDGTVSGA
UniProt Q07343, whole entry: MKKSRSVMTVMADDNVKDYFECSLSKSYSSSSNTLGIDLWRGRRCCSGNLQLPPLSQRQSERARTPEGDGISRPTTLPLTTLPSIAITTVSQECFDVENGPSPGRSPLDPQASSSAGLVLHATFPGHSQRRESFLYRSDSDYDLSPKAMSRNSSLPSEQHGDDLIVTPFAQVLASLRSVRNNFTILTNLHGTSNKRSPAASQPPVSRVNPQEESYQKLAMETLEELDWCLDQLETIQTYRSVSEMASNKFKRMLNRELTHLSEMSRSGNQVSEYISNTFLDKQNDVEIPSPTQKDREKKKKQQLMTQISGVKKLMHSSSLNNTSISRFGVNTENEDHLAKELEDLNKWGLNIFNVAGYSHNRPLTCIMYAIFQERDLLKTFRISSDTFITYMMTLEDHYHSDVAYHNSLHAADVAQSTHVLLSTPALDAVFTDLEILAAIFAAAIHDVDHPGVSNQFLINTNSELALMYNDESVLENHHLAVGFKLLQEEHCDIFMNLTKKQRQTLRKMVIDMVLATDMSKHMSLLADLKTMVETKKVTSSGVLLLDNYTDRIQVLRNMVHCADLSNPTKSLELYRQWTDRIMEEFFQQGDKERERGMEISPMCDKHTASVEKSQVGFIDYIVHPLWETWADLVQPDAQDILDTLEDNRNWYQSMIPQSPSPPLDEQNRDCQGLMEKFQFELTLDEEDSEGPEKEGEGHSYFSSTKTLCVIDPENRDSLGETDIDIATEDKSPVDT

Legend:
[1] = Cell Viability - Mesenchymal (AID 546); conditions: mesenchymal cells viability, qHTS; at 91.7 µM (top of the series);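 note: cells exposed to compound for 40 hours before reading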
In short: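 AC50 values reflect the drop in intracellular ATP in a human kidney mesenchymal line derived from normal glomeruli. Treatment lasts 40 hr at 37 °C in complete medium, and the signal comes from CellTiter-Glo luminescence.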

[2] = Cellular Toxicity (caspase-3) HepG2 (AID 654); conditions: HepG2 caspase-3 activation, luminescence, 0% = DMSO only, 100% = tamoxifen; at 92.2 µM (top of the series);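 note: cells exposed to compound for 16 hours before reading; 0% = DMSO alone and 100% = caspase signal from 100 µM tamoxifen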
In short: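 HepG2 cells (1500/well) in complete medium were treated with compounds for 16 hr at 37 °C. Caspase-3/7 activity was then read as luminescence from peptide-aminoluciferin cleavage. AC50 came from Hill fits, normalized to DMSO and 100 uM tamoxifen.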

[3] = Cellular Toxicity (caspase-3) Jurkat (AID 655); conditions: Jurkat caspase-3 activation, luminescence, DMSO = 0%, tamoxifen = 100%; at 92.2 µM (top of the series);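 note: cells exposed to compound for 16 h at 37 °C before reading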
In short: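 5000 Jurkat cells/well; compound 16 hr, 37 °C; Caspase-Glo 3/7 added, 20 min RT; luminescence read. Norm: DMSO = 0%, tamoxifen 100 uM = 100%. AC50, Hill model.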

[4] = Cellular Toxicity (caspase-3) HUV-EC-C (AID 656); conditions: HUV-EC-C cells, caspase-3 activation (apoptosis), vehicle = 0, 100 µM tamoxifen = 100%; at 92.2 µM (top of the series)
In short: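 qHTS; HUV-EC-C, 1000 cells/well; 5 hr settle, 16 hr cmpd, 37°C; Caspase-Glo 3/7, 20 min RT; luminescence. Norm: DMSO = 0%, tamoxifen 100 uM = 100%. Hill-fit AC50.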

[5] = Cellular Toxicity (caspase-3) SHSY5Y (AID 657); conditions: SH-SY5Y caspase-3 activation, DMSO zero, 10 µM staurosporine = 100%; at 91.7 µM (top of the series)
In short: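 qHTS, SH-SY5Y, 1500 cells/well, 5 h pre-incubation 37 °C; compound 16 h 37 °C; Caspase-Glo 3/7 1 h RT; luminescence. Norm.: DMSO = 0, 10 uM staurosporine = 100%. Hill fit → AC50.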

[6] = Cellular Toxicity (caspase-3) BJ (AID 658); conditions: BJ fibroblasts, luminescence, normalized: DMSO 0%, staurosporine 100%; at 91.7 µM (top of the series)
In short: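 Readout: Caspase-Glo 3/7 luminescence increase in BJ cells after 16 hr treatment at 37 °C. Staurosporine and tamoxifen served as positive controls; AC50 values came from Hill modelling of data normalized to DMSO and 10 uM staurosporine.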

[7] = Cellular Toxicity (caspase-3) MRC-5 (AID 659); conditions: MRC-5 cells, luminescence, normalized: DMSO 0%, 10 µM staurosporine 100%; at 91.7 µM (top of the series)
In short: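 Concentration-dependent caspase 3/7 activation is measured in human normal lung fibroblasts (MRC-5) following 16-hour treatment. AC50 values come from standard Hill-equation modeling of luminescence normalized to DMSO and 10 uM staurosporine.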

[8] = Cellular Toxicity (caspase-3) Mesangial (AID 660); conditions: mesangial cells, normalized: DMSO 0%, 100 µM tamoxifen 100%; at 91.7 µM (top of the series);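 note: cells exposed to compound for 16 h before the caspase read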
In short: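 Human renal glomerular mesangial cells (1000/well) were treated with compounds for 16 h at 37 °C in complete medium, then caspase 3/7 activity was read by Caspase-Glo luminescence. Data were normalized to DMSO and 100 uM tamoxifen; AC50 from Hill fits.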

[9] = Cellular Toxicity (caspase-3) SK-N-SH (AID 661); conditions: SK-N-SH caspase-3 activation, qHTS, DMSO as zero, staurosporine as full; at 91.7 µM (top of the series)
In short: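 SK-N-SH human neuroblastoma cells (1500/well) were treated with compounds for 16 hr at 37 °C in complete medium; caspase 3/7 activity was read by Caspase-Glo luminescence. AC50 came from Hill fits of data normalized to DMSO and 10 uM staurosporine.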

[10] = Cellular Toxicity (caspase-3) H-4-II-E (AID 663); conditions: H-4-II-E rat hepatoma, scaled: DMSO 0%, 100 µM tamoxifen 100%; at 92.2 µM (top of the series)
In short: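 Apoptosis induction is scored as increased luminescence from caspase 3/7 substrate cleavage in rat hepatoma H-4-II-E cells exposed to compound for 16 hr. Activity is scaled between DMSO and 100 uM tamoxifen.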

[11] = Cellular Toxicity (caspase-3) Hek293 (AID 664); conditions: HEK293 caspase-3 activation, DMSO = 0%, 100 µM tamoxifen = 100%; at 92.2 µM (top of the series);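 note: cells exposed to compound for 16 h at 37 °C before readout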
In short: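 HEK293 cells were exposed to compounds in complete medium for 16 hr at 37 °C, then caspase-3/7 activity was read by Caspase-Glo 3/7 luminescence after 20 min at room temperature. Data normalized to DMSO and 100 uM tamoxifen; AC50 from Hill fits.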

[12] = Cellular Toxicity (caspase-3) N2a (AID 665); conditions: N2a cells, luminescence, normalized: DMSO 0%, 10 µM staurosporine 100%; at 92.2 µM (top of the series);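 note: compound exposure lasted 16 h at 37 °C before readout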
In short: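 Mouse N2a neuroblastoma cells (1500/well) were treated with compounds for 16 h at 37 °C, then caspase-3/7 activity was read by Caspase-Glo luminescence after 1 h at room temperature. Data were normalized to DMSO and 10 uM staurosporine; AC50 from Hill fits.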

[13] = Cellular Toxicity (caspase-3) NIH 3T3 (AID 666); conditions: NIH 3T3 caspase-3 activation, apoptosis/toxicity, 0% DMSO, 100% is 100 µM tamoxifen; at 92.2 µM (top of the series);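 note: caspase signal read after 16 h compound exposure; 0% = DMSO basal and 100% = 100 µM tamoxifen stimulation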
In short: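 Mouse NIH 3T3 fibroblasts (1000 cells/well) were treated with compound for 16 hr at 37°C in complete medium; caspase-3/7 activity was read by Caspase-Glo luminescence. Normalized to DMSO and 100 uM tamoxifen; AC50 from Hill fits.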

[14] = Cellular Toxicity (caspase-3) Renal Proximal Tubule (AID 667); conditions: renal proximal tubule cells, primary cells freshly taken from rat, solvent-only wells 0%, staurosporine 100%; at 91.7 µM (top of the series);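 note: cells exposed to compound for 16 hours at 37 °C before detection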
In short: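 AC50 derived by standard Hill fit of concentration-response data, normalized between DMSO basal and 10 uM staurosporine as 100% stimulation. Cells: primary rat kidney proximal tubule, 16 h treatment at 37 °C.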

[15] = target: Cytochrome P450 3A4 (Homo sapiens) (UniProt P08684); assay: qHTS Assay for Inhibitors and Substrates of Cytochrome P450 3A4 (AID 884); conditions: recombinant CYP3A4, Luciferin-PPXE luminescence; at 57.1 µM (top of the series); note: % is set by controls: 0 for no effect and ±100 for the full control effect; nearly all actives have a fitted effect of over 50% in size
[16] = Cell Viability - LYMP2-001 (AID 921); conditions: LYMP2-001 lymphoblastoid cell viability; at 92.2 µM (top of the series);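 note: cells exposed to compound for 24 h at 37 °C; 0% = DMSO only and full inhibition = tetraoctylammonium bromide control wells; nearly all actives have a fitted effect of over 70% in size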
In short: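 Steps: seed 2500 lymphoblastoid cells/well; 5 hr, 37 C; add compound; 24 hr, 37 C; CellTiter-Glo reagent, 30 min room temperature; read luminescence. Concentration-response modeled by Hill equation for AC50.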

[17] = MultiTox-Fluor Cytotoxicity Assay - LYMP1-001 - Dead Cells (AID 946); conditions: LYMP1-001 lymphoblastoid cells, dead-cell protease fluorescence; at 92.2 µM (top of the series);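 note: 0% = DMSO and 100% = tetraoctylammonium bromide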
In short: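 In this qHTS, 15 uM tetraoctylammonium bromide defined 100% and DMSO defined basal activity. Lymphoblastoid cells (LYMP1-001, 2500 per well) received compound for 16 hr at 37 C before a fluorogenic dead-cell substrate readout at 485/520 nm.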

[18] = MultiTox-Fluor Cytotoxicity Assay - LYMP1-001 - Live Cells (AID 947); conditions: LYMP1-001 lymphoblastoid cells, live-cell protease fluorescence viability; at 92.2 µM (top of the series);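 note: 0% = DMSO only and full inhibition = tetraoctylammonium bromide control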
From the text: NIH Chemical Genomics Center [NCGC]
NIH Molecular Libraries Screening Centers Network [MLSCN]
National Institutes of Environmental Health Sciences [NIEHS]
National Toxicology Program [NTP]
We have developed a 1536-well cell-based assay for quantitative high throughput screening (qHTS) against a number of cell lines to determine in vitro cytotoxicity of small molecules. This particular assay uses a human lymphoblastoid cell line (LYMP1-001) purchased from Coriell Institute.
NCGC Assay Protocol Summary:
The MultiTox-Fluor Cytotoxicity Assay (Promega) is a homogeneous method to simultaneously measure the relative number of live and dead cells in culture by detecting changes in cell membrane integrity. There are two fluorogenic peptide substrates in the assay reagent. Viable cells are determined when the cell-permeant substrate (GF-AFC) enters the cell and is cleaved by protease from live cells resulting in liberated fluorophore. […] The dead cells are determined by using fluorogenic cell-impermeant peptide substrate (bis-AAF-R110) which cleaved by dead cell proteases leaking from damaged cell membrane.
Using the MultiTox-Fluor Cytotoxicity Assay, the relative number of live cells was measured in the lymphoblastoid cell line with complete culture medium following compound treatment for 16 hours. […] AC50 values were determined from concentration-response data modeled with the standard Hill equation. […]

[19] = target: 3',5'-cyclic-AMP phosphodiesterase 4B (Homo sapiens) (UniProt Q07343); assay: qHTS Assay for Inhibitors of PDE-IV (AID 607; active = well fitted activation curve with a large enough effect in the main read-out, with a control signal flat, not every such curve was filed as active; note: % of control where 0% means no effect); conditions: HEK293 ACTOne CNG channel cells, membrane potential fluorescence; at 22.9 µM (top of the series)
In short: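 Live HEK293 cells with a modified cyclic nucleotide-gated (CNG) channel report intracellular cAMP via membrane-potential dye fluorescence (ex 535/em 590 nm). Endogenous PDE-IV was targeted. Compounds were tested at up to 22.9 uM final; RO 20-1724 100 uM served as control.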

[20] = qHTS Assay for Identification of Small Molecule Agonists for Hypoxia Response Element Signaling Pathway (AID 914; active = well fitted activation curve with a large enough effect in the signal ratio, with a control signal flat, not every such curve was filed as active; the % refers to the signal ratio; note: % of control where 0% means no effect); conditions: ME-180 (cervical carcinoma) HRE-bla reporter, beta-lactamase ratio, CoCl2, 17 h; active compounds read high

ClCCOP(OCCCl)OCCCl
inactive: activity change, negative = cytotoxicity [1] 2.78% | caspase-3 activation [2] -0.284% | caspase-3 activation [3] 1.23% | caspase-3 activation [4] -5.16% | caspase-3 activation [5] 2.44% | caspase-3 activation [6] -0.473% | caspase-3 activation [7] 0.962% | caspase-3 activation [8] 1.06% | caspase-3 activation [9] 0.479% | caspase-3 activation [10] -0.131% | caspase-3 activation [11] -1.84% | caspase-3 activation [12] -0.293% | caspase-3 activation [13] 4.58% | caspase-3 activation [14] 9.6% | activity change, negative = inhibition [15] -0.59% | activity change, negative = cytotoxic [16] -8.14% | cytotoxicity (dead cells) [17] 2.81% | activity change, negative = cytotoxicity [18] -10.5%

NC1CCCCC1.NP(=O)(O)N(CCCl)CCCl
inactive: activation (PDE inhibition) [19] 3.73%

O=C(O)C1(Nc2ccccc2)CCN(Cc2ccccc2)CC1
inactive: activation (PDE inhibition) [19] -4.04% | activation [20] 4.81%

CCOP(=O)(Cl)Cl
inactive: activity change, negative = cytotoxicity [1] 6.77% | caspase-3 activation [2] -0.427% | caspase-3 activation [3] 0.588% | caspase-3 activation [4] -3.81% | caspase-3 activation [5] -1.75% | caspase-3 activation [6] -0.643% | caspase-3 activation [7] 2.27% | caspase-3 activation [8] -0.0102% | caspase-3 activation [9] 0.484% | caspase-3 activation [10] -0.0551% | caspase-3 activation [11] -0.558% | caspase-3 activation [12] 1.29% | caspase-3 activation [13] -2.46% | caspase-3 activation [14] 3.8% | activity change, negative = inhibition [15] -1.39% | activity change, negative = cytotoxic [16] -14.5% | cytotoxicity (dead cells) [17] 0.805% | activity change, negative = cytotoxicity [18] -3.22%
